# Binding of CDR-mutated scFvs to a peptide of the spike HR2 region

Binding partner: SARS-CoV-2 spike HR2 peptide, sequence PDVDLGDISGINAS.

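Designed CDR sequences, proposed from the first random library and measured here. Their group label is 14H_Rand (Rand: our label for a block that the file lists under HC and that is probably the random mutants of the ten best first-round binders). The scFvs were displayed on barcoded MATa yeast, the peptide on MATalpha yeast. After mating in shaken culture at 30 °C for 16 h, diploids were selected and their barcode pairs sequenced. Each replicate has its own calibration line, from reference interactions of the BCL2 family. There are six technical replicates.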

Parent scFv Ab-14: VH joined to VL by the linker GGGGSGGGGSGGGGS. Changes lie in the heavy chain CDRs alone.
VH: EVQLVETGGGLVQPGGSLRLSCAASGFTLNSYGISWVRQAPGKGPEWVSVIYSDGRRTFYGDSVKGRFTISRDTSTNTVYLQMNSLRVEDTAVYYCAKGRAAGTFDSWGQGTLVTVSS
VL: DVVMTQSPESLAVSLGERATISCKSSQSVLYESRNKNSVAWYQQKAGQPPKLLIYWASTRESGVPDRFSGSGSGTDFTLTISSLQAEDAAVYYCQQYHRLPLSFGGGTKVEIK

Positions count from residue 1 of the parent VH; S31D puts D in place of S.
Numbers give log10(Kd / nM), so 0 is 1 nM and 3 is 1 µM. Smaller is tighter.
"nd" marks a missing value. The strain was present, yet no cells mated with the target were sequenced in that replicate, which points to weak or no binding.

changes,"replicates, log10 nM",empty controls
S31D F59Q G61I G103S,nd nd nd nd nd nd,0 of 18
S31D R57F G103L D106I,nd nd nd nd nd nd,0 of 18
S31Q G33D G61D D62H R100Q A101L,nd nd 2.20 nd nd nd,0 of 18
G61D R100Q A101L D106V,nd nd nd nd nd nd,0 of 18
T28I G61D R100Q A101L,0.64 nd 0.88 1.61 nd 1.58,0 of 18
S31E Y60L G61T A101F A102F,nd nd nd nd nd nd,0 of 18
S31Q S35N G61S T104F,nd 4.55 nd nd 3.67 nd,1 of 18 (1.78)
S31E Y52S G55T G61T A101F A102S,nd nd nd nd nd nd,0 of 18
N30D S53V G55M F105A D106L,nd nd nd nd nd nd,0 of 18
S31E G61T A101F S107R,1.37 0.75 0.84 1.57 1.85 1.11,0 of 18
S53A A102M G103C F105N D106K,nd nd nd nd nd nd,0 of 18
N30D S35N A102Q F105D D106G,nd nd nd nd nd nd,0 of 18
F59Q G61S A102G,nd nd nd nd nd nd,0 of 18
G33H Y52L S53A R100G F105N D106K,nd nd nd nd nd nd,0 of 18
N30G S31E G103V S107Q,nd nd nd nd nd nd,0 of 18
N30D S63L G103Q F105A D106L,1.56 nd nd nd nd nd,0 of 18
S31D F59Q G61I A102G,1.59 2.19 1.24 2.03 1.88 1.49,1 of 18 (2.52)
Y52S G61D R100Q A101L,nd 2.83 nd nd nd nd,1 of 18 (1.96)
L29R S31E G61T A101F A102Q,nd nd nd nd nd 1.57,0 of 18
S31E S35K T58Q G103V S107C,nd nd nd nd nd nd,0 of 18
S31D S35G G55T F59Q G61I F105E D106N,nd nd nd nd 2.07 nd,0 of 18
G61S S63Y A102G,nd nd nd nd nd nd,0 of 18
G61D V64Y R100Q A101I,nd 1.95 nd 1.86 nd nd,0 of 18
S31F T58V G61S G99R R100N T104F S107H,nd nd 0.69 nd nd nd,0 of 18
S31E S53F G61T A101F,1.40 1.63 2.04 1.98 0.68 1.62,0 of 18
L29G S31E S53Q G61T G99N A101F,nd nd nd nd nd nd,0 of 18
S31E V64M G103V S107Q,nd nd nd nd nd nd,0 of 18
N30A S31Q G61S T104F,nd nd nd nd nd nd,0 of 18
S31D Y32T S35E F59V G61I,nd nd nd nd nd nd,0 of 18
S31D D54L F59Q G61I V64K,nd nd nd nd nd nd,0 of 18
F27P R56N G61C A102G,nd nd nd nd nd nd,0 of 18
R57E G61S A102G,nd nd nd nd nd nd,0 of 18
G33K F59T G61S A102G,nd nd nd nd nd nd,0 of 18
T28D R100N T104W D106N S107N,nd nd nd nd nd nd,0 of 18
G33L G61D R100Q A101L F105I,nd nd nd nd nd nd,0 of 18
N30D Y52S F105A D106L,nd nd nd nd nd nd,0 of 18
S31D R100T G103L D106I,nd nd nd nd nd nd,0 of 18
S53A R100V F105N D106K,nd nd nd nd nd nd,2 of 18 (2.04)
S35A G61S A102G,nd nd 0.47 nd nd nd,0 of 18
N30Y S31E S107Q,nd 0.90 nd nd 2.22 2.14,0 of 18
N30Y Y52A G61S A102G G103M S107N,nd nd nd nd nd nd,1 of 18 (1.46)
S31E Y60W V64G G103V S107Q,nd nd nd nd nd nd,0 of 18
S31D D62A S63G G103L D106I,nd nd nd nd nd nd,0 of 18
S31Y G61D R100Q A101L,0.48 0.47 -0.14 -0.07 0.18 1.49,0 of 18
G61D G99N R100Q A101L D106S,nd nd nd nd nd nd,0 of 18
S31E T58N V64H G103V F105S S107Q,nd nd nd nd nd nd,0 of 18
N30T S31E Y52G D54S Y60L G61T S63F A101F,nd nd nd nd nd nd,0 of 18
S31D I51N F59Q G61I D62S A101P,nd nd nd nd nd nd,0 of 18

Again, the first 5 entries without any signal:

changes,"replicates, log10 nM",empty controls
S31D F59Q G61I G103S,nd nd nd nd nd nd,0 of 18
S31D R57F G103L D106I,nd nd nd nd nd nd,0 of 18
G61D R100Q A101L D106V,nd nd nd nd nd nd,0 of 18
S31E Y60L G61T A101F A102F,nd nd nd nd nd nd,0 of 18
S31E Y52S G55T G61T A101F A102S,nd nd nd nd nd nd,0 of 18

Of ten entries with the parent sequence, four were seen in most replicates (averages 0.34 to 2.37), three in one and three in none, so single entries are noisy.
In the paper, a design with two or fewer of six values counts as a poor binder.
A sequence measured in both rounds can read differently, since the two assays cover different ranges.
As a blank, each scFv also met three strains without target: over all heavy chain designs, 1% of these pairings were detected, typically at 2.08 and seldom below 0.84. For each scFv, signals with the empty controls are counted beside the result, with their mean in brackets.

The measurements come from Li et al. 2023 (doi:10.1038/s41467-023-39022-2) through the FLAb antibody collection.